{
  "source": "patent US10259846B2",
  "about": "“Bouvardin derivatives and therapeutic uses thereof” (The Regents of the University of Colorado, a body corporate, priority 2012, dated 2019)",
  "origin": "cited, not measured here",
  "conditions": "with radiation (Raben et al., 2005); cited from earlier work",
  "data": [
    {"substance": "Cetuximab", "values": [
      {"measurement": "CI values with radiation", "result": "~0.5"}
    ]}
  ]
}
